Series [1] can be described thus: Drug-drug compatibility test under accelerated stability conditions (content and related substances by HPLC, appearance). To be noted: for Content (SGLT-2 inhibitor): second value of the cell in mixtures. As for the experimental part: A drug-drug compatibility test was conducted to identify an optimal combination of an angiotensin II receptor blocker (ARB) and a sodium-glucose cotransporter-2 (SGLT-2) inhibitor that remains stable without degradation during long-term storage.
Specifically, mixtures of an ARB and an SGLT-2 inhibitor were stored for 2 weeks under accelerated stability test conditions of 40±2°C and 75±5% relative humidity, and changes in the contents of the respective ingredients and related substances, as well as changes in appearance, such as color and agglomeration, were analyzed. Olmesartan, valsartan, and telmisartan were used as the ARBs, and empagliflozin, dapagliflozin propanediol monohydrate, and canagliflozin were used as the SGLT-2 inhibitors.
To analyze the contents of the active ingredients and the degree of formation of related substances, ten tablets of each mixture of the ARB and the SGLT-2 inhibitor stored for 1 week or 2 weeks were placed in each of three 100 mL flasks. A solution prepared by mixing a 0.01 M aqueous hydrochloric acid solution and acetonitrile at an appropriate ratio was added to extract the active ingredients, followed by stirring and HPLC analysis.
To evaluate appearance and viscosity, 10 g of each mixture of the ARB and the SGLT-2 inhibitor stored for 1 week or 2 weeks was exposed to 100 mL of purified water at room temperature for 10 minutes, and the appearance and viscosity of the mixture were then evaluated.

The nature of series [2]: Nonclinical 13-week repeated oral administration: body weight. To be noted: 13 weeks. As for the experimental part:
Ten male and ten female 6-week-old Sprague-Dawley rats per group were orally administered the test substances once daily for 13 weeks. During the test period, general clinical signs were observed, blood tests were performed, and urinary excretion volume was measured. After completion of the observation period, the rats were euthanized and necropsied, and the heart weight was measured.
Dapagliflozin propanediol hydrate was used as dapagliflozin, and telmisartan powder (23.9%) was used as telmisartan, each in an amount corresponding to the respective dose.
Dapagliflozin and/or telmisartan, alone or in combination, were repeatedly administered orally to normal SD rats for 13 weeks in the same manner as in Experimental Example 1-1, and body weight was measured.

The mark [3] stands for this setting: Accelerated, Week 1, 40±2°C, 75±5% relative humidity.
The mark [4] stands for this setting: Accelerated, Week 2, 40±2°C, 75±5% relative humidity.

Regarding `CCCCC(=O)N(Cc1ccc(-c2ccccc2-c2nnn[nH]2)cc1)[C@H](C(=O)O)C(C)C`, the Appearance result in series [1] (setting [3]), in series [1] (setting [4]) and in series [1] (Initial) was “Acceptable” in each case.
On to `CCCc1nc2c(C)cc(-c3nc4ccccc4n3C)cc2n1Cc1ccc(-c2ccccc2C(=O)O)cc1`, for which the Appearance result in series [1] (setting [3]), in series [1] (setting [4]) and in series [1] (Initial) was “Acceptable” each time. In series [2] (female rats, telmisartan-alone administration group (72 mg/kg/day)), the body weight entry is listed as “no significant reduction”.
For `CCOc1ccc(Cc2cc([C@@H]3O[C@H](CO)[C@@H](O)[C@H](O)[C@H]3O)ccc2Cl)cc1`, the Appearance result in series [1] (setting [3]), in series [1] (setting [4]) and in series [1] (Initial) was “Acceptable” throughout. For the same compound, the results for the “Content (SGLT-2 inhibitor)” value in series [1] (setting [3]), in series [1] (setting [4]) and in series [1] (Initial) were 100.1%, 100.2% and 100.3%, respectively. Besides, in series [2] (female or male rats, dapagliflozin-alone administration group (9 mg/kg/day)), the body weight result was “no significant reduction”.
For `Cc1ccc([C@@H]2O[C@H](CO)[C@@H](O)[C@H](O)[C@H]2O)cc1Cc1ccc(-c2ccc(F)cc2)s1`, the results for the Appearance entry in series [1] (setting [3]), in series [1] (setting [4]) and in series [1] (Initial) were “Unacceptable”, “Unacceptable” and “Acceptable”, respectively.
Turning to `OC[C@H]1O[C@@H](c2ccc(Cl)c(Cc3ccc(O[C@H]4CCOC4)cc3)c2)[C@H](O)[C@@H](O)[C@@H]1O`, the Appearance result in series [1] (setting [3]), in series [1] (setting [4]) and in series [1] (Initial) was “Acceptable” throughout.

For the origin of these results see patent EP4837573A1, “PHARMACEUTICAL COMPOSITION CONTAINING SODIUM-GLUCOSE COTRANSPORTER-2 INHIBITOR AND ANGIOTENSIN II RECEPTOR BLOCKER FOR PREVENTION OR TREATMENT OF OBESITY” (dated 2026).
